Laboratory results: US20240252520A1 (priority 2023, published 2024)

Tested on: diabetic db/db mice
Experiment: LNP-FGF2, LNP-IL-2, LNP-CHI3L1, LNP-IL-17A mRNA bandages in db/db mice (Example 15)
Type: in vivo, mouse
Excerpt: The mRNAs and bandages used in these studies were the same as those described in Example 7 above, except that the IL-2 ORF7 mRNA was replaced with an mRNA encoding full length wildtype mouse IL-2 (SEQ ID NO: 14), designated here as “IL-2”. The new IL-2 mRNA had the same general structure as the mRNAs described in Example 7, i.e., full substitution of both Pseudo-U and 5-Methyl-C, a 5′ cap structure, a 5′ UTR, a 3′ UTR, a polyA tail, and it was not codon optimized. The IL-2 coding region in the IL-2 mRNA was encoded by SEQ ID NO: 13.
We then evaluated the efficacy of LNP-FGF2, LNP-IL-2, LNP-CHI3L1, and LNP-IL-17A mRNA treatment in diabetic db/db mice. This is the same db/db mouse model described in Example 7 above. Two 6-mm punch biopsy full-thickness wounds were created on the dorsum of 16-week-old diabetic db/db mice (FIG. 19A). Macroporous bandages loaded with 4 μg of LNP-FGF2, LNP-IL-2, LNP-CHI3L1, and LNP-IL-17A mRNA were topically applied on the wounds for 10 days. Blank bandages and bandages loaded with eGFP, CHI3L1 protein and IL-2 protein were also employed as additional controls. The wound size was measured every three days.

Substance: IL-2 protein: bandages loaded with IL-2 protein employed as additional control
- wound healing during the whole period vs blank bandage (repeated measurement analysis) (4 μg bandage, D0 to D10): no differences in wound healing
- wound reduction on Day 10 (Day 10, compared with blank): similar
